Data from ChEMBL document CHEMBL5576103, “Targeting prolidase. A survey of the literature data to depict a structure-activity relationship frame and to address future studies for drug development” (Bioorg Med Chem, 2024).

Experiments:
[1] = biological target: T1, Xaa-Pro dipeptidase (Homo sapiens) (UniProt P12955); assay: Inhibition of prolidase (unknown origin) at 200 uM relative to control
T1 sequence (whole entry): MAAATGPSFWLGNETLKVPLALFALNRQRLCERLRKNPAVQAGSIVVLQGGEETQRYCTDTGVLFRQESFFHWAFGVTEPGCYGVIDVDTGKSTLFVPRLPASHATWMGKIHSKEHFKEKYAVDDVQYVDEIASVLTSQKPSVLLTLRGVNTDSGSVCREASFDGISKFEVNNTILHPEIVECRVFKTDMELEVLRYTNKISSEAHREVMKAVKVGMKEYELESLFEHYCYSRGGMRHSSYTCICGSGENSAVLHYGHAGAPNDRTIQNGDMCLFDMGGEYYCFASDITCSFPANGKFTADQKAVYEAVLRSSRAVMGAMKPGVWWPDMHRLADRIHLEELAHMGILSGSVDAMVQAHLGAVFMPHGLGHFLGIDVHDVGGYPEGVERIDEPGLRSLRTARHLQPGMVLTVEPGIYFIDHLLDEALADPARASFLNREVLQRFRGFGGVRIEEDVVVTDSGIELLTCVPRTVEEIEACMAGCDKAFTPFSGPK

Hathewaya histolytica [2] = assay: Inhibition of collagen biosynthesis Clostridium histolyticum assessed as reduction in collagen formation at 30 uM by spectrophotometric analysis; assay type: functional
[3] = biological target: T1, Xaa-Pro dipeptidase (Homo sapiens); assay: Inhibition of prolidase (unknown origin) at 5 uM relative to control
[4] = biological target: T1, Xaa-Pro dipeptidase (Homo sapiens); assay: Inhibition of prolidase (unknown origin) at 100 uM relative to control
[5] = biological target: T1, Xaa-Pro dipeptidase (Homo sapiens); assay: Inhibition of prolidase (unknown origin) at 0.01 uM relative to control
[6] = biological target: T1, Xaa-Pro dipeptidase (Homo sapiens); assay: Inhibition of prolidase (unknown origin) at 0.03 uM relative to control
[7] = biological target: T1, Xaa-Pro dipeptidase (Homo sapiens); assay: Inhibition of prolidase (unknown origin) at 0.05 uM relative to control
Hathewaya histolytica [8] = assay: Inhibition of collagen biosynthesis Clostridium histolyticum assessed as reduction in collagen formation at 5 microg/ml by spectrophotometric analysis; assay type: functional; settings: dose 5.0 µg/ml
[9] = biological target: T1, Xaa-Pro dipeptidase (Homo sapiens); assay: Inhibition of prolidase (unknown origin) at 10 microg/ml relative to control; settings: dose 10.0 µg/ml
[10] = biological target: T1, Xaa-Pro dipeptidase (Homo sapiens); assay: Inhibition of prolidase (unknown origin) at 1 uM relative to control
[11] = biological target: T1, Xaa-Pro dipeptidase (Homo sapiens); assay: Inhibition of prolidase (unknown origin) at 2 uM relative to control
[12] = biological target: T1, Xaa-Pro dipeptidase (Homo sapiens); assay: Inhibition of prolidase (unknown origin) at 0.5 uM relative to control

C=CCCCCCC1OC1C/C=C\C/C=C/CC (stereo not drawn)
inhibition [1]: 55%

COC(=O)[C@H]1O[C@@H](Oc2cc(O)c3c(=O)cc(-c4ccc(O)cc4)oc3c2)[C@H](O)[C@@H](O)[C@@H]1O
inhibition (Hathewaya histolytica [2]): 10%

CC(=O)Oc1ccccc1C(=O)O
inhibition [3]: 45%

O=C(CCc1ccccc1)NCC(=O)N1CCC[C@H]1C(=O)Nc1ccc2ccc(=O)oc2c1
inhibition [4]: 91%

COC(=O)c1ccc(O)cc1
inhibition [5]: 32.5%
inhibition [6]: 66.5%
inhibition [7]: 80%

C=C(C)[C@@H]1CC[C@]2(C(=O)O)CC[C@]3(C)[C@H](CC[C@@H]4[C@@]5(C)CC[C@H](O)C(C)(C)[C@@H]5CC[C@]43C)[C@@H]12
inhibition (Hathewaya histolytica [8]): 50%
inhibition [9]: 50%

Cn1c(=O)c2c(ncn2C)n(C)c1=O
inhibition [10]: 17.5%
inhibition [11]: 28.8%
inhibition [12]: 38.8%

O=C(O)[C@H]1O[C@@H](Oc2cc(O)c3c(=O)cc(-c4ccc(O)cc4)oc3c2)[C@H](O)[C@@H](O)[C@@H]1O
inhibition (Hathewaya histolytica [2]): 10%
